1 sequence from ChEMBL document CHEMBL4219047, “Optimization of peptide-based polyagonists for treatment of diabetes and obesity” (Bioorg Med Chem, 2018) can be followed below.

Sequences of proteins named here, by UniProt entry; tags and fusion partners are left off.
UniProt P43220, whole entry: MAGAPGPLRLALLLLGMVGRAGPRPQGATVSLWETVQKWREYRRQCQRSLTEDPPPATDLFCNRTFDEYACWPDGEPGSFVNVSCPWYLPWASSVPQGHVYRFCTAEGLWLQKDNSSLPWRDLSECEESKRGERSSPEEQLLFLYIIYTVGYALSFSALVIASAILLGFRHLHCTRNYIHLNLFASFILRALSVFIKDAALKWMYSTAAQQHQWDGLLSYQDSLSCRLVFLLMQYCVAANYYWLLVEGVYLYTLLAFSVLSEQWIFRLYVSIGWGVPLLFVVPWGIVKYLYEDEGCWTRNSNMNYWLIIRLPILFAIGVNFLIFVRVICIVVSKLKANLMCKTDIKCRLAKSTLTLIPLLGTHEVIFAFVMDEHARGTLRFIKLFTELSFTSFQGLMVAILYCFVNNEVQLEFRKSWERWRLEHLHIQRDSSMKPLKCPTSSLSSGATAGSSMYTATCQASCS

This assay has as its target Glucagon-like peptide 1 receptor (Homo sapiens, UniProt P43220). The assay can be described thus: Agonist activity at human GLP1 receptor expressed in CHO cells assessed as increase in cAMP level by TR-FRET assay relative to GLP1. It counts as functional, cell-based. Background: cAMP levels reflect the balance of adenylyl cyclase and phosphodiesterase activity.

As to GLUCAGON, the Activity amounted to 0.2%.
